Laboratory results as given in patent publication US9273055B2 (dated 2016).

Chains of the proteins cited; added tags and fusions are not shown. Residues count along the entry.
UniProt Q9UM73, 19-1620: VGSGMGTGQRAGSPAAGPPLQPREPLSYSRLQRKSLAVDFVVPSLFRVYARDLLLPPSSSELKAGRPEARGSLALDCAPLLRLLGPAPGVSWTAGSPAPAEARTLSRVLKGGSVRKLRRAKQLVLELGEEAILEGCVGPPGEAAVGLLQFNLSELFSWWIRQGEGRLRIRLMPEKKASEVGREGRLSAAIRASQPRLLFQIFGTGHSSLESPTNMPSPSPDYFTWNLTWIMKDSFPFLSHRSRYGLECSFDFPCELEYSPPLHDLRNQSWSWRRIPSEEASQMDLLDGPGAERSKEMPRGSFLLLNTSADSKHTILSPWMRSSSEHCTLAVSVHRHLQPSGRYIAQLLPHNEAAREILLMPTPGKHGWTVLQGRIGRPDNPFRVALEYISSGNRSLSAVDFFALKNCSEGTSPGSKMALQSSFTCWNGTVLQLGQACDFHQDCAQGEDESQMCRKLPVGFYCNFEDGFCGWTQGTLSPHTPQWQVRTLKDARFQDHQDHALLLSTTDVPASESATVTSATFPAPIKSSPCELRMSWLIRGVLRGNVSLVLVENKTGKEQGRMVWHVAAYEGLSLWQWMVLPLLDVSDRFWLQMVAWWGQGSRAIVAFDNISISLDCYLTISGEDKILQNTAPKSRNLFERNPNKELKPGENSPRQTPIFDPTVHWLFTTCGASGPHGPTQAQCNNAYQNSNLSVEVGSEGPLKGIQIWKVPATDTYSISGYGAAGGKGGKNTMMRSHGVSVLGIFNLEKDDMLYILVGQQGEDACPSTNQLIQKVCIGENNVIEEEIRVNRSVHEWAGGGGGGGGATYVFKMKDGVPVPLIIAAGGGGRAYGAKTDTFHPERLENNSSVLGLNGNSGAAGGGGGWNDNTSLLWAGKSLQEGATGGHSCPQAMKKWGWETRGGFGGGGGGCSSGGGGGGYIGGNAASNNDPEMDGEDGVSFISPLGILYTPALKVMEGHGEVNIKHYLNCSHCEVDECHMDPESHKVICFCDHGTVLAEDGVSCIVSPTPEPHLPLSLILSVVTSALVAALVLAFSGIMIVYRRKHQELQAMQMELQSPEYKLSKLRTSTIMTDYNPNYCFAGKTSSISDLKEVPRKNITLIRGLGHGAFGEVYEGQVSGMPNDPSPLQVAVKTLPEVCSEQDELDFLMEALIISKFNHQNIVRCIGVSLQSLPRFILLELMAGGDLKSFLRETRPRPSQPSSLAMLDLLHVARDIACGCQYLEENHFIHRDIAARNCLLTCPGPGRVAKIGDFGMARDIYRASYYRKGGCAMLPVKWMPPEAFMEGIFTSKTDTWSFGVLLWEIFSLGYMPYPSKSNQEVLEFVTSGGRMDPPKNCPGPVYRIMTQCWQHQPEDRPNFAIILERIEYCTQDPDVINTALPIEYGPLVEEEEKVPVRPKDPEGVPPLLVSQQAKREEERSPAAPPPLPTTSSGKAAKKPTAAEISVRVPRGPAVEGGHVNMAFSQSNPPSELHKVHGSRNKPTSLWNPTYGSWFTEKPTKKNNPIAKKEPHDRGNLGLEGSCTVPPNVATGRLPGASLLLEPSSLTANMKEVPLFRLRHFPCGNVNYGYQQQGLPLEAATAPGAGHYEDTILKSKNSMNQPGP
UniProt P04629, 33-796: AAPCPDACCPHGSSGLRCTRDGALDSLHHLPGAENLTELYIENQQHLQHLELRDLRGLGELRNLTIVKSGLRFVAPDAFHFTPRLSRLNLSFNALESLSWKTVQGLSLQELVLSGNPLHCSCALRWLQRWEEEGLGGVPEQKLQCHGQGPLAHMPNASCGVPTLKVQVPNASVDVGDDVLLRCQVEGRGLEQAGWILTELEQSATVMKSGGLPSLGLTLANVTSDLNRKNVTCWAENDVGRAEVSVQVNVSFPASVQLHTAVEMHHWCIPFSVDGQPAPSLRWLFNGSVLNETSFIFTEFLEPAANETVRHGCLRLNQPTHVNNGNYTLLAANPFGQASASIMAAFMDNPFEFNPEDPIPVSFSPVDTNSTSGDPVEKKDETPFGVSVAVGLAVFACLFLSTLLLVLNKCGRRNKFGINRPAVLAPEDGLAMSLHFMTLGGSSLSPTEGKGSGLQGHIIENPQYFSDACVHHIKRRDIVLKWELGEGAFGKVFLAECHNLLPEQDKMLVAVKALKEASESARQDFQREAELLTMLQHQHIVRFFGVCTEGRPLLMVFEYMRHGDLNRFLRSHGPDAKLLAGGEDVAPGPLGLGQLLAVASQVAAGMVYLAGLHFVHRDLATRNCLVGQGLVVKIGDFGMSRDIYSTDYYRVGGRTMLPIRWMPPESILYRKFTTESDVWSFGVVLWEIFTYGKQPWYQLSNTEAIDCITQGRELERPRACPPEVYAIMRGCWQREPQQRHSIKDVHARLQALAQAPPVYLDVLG

Experiments:
ALK = ALK (Homo sapiens, UniProt Q9UM73); assay: In vitro kinase activity assay (LANCE TR-FRET), ALK; conditions: read-out: ALK IC50
TrkA = TrkA (Homo sapiens, UniProt P04629); assay: In vitro kinase activity assay (LANCE TR-FRET), TrkA; type: biochemical; conditions: read-out: TrKA IC50

SMILES: C[C@@H](Cc1c(F)c(F)cc(F)c1F)Nc1cc[nH]c(=O)c1-c1nc2cc3c(cc2[nH]1)C(=O)N(c1ccc(F)nc1)C3=O [Compound 15, (S)-6-(6-Fluoropyridin-3-yl)-2-(2-oxo-4-((1-(2,3,5,6-tetrafluorophenyl)propan-2-yl)amino)-1,2-dihydropyridin-3-yl)imidazo[4,5-f]isoindole-5,7(1H,6H)-dione]
- IC50 (ALK): > 10 µM
- IC50 (TrkA): > 10 µM
